Values of other authors as cited in patent US11185540B2, “Extended release compositions of opioid antagonists and phosphodiesterase 5 inhibitors” (Pardon My Scotch, LLC, priority 2017, dated 2021).

Protein sequences, listed by entry. Tags and fused reporters are not part of them.
UniProt P35372, whole entry, species assumed: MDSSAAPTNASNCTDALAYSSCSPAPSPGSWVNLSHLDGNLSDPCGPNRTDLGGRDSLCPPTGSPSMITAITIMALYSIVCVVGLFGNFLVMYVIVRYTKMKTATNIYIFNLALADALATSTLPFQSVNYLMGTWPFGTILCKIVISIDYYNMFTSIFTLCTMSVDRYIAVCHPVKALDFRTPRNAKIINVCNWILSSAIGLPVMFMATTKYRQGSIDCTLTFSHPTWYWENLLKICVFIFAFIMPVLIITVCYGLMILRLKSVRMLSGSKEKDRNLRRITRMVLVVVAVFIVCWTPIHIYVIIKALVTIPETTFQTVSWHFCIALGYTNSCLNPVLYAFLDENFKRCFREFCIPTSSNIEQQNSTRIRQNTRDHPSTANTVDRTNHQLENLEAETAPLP

Target: μ-opioid receptor (Homo sapiens, UniProt P35372)
Settings: reported

Oc1ccc2c3c1O[C@H]1[C@H](O)CC[C@@]4(O)[C@@H](C2)N(CC2CC2)CC[C@]314 [Batch 6β-naltrexol, 6β-naltrexol]
μ receptor affinity relative to naltrexone: half of that of naltrexone
